One data set deals with PBMC. Briefly: Cytotoxicity, cell viability assay in normal cells. The format is cell-based, human. The note with it: Con. 0.000976563 μM, fraction of 0 μM control. An excerpt:
(§1) Human peripheral blood mononuclear cells (PBMCs), normal T-cells and B-cells were provided by the University of Pennsylvania Human Immunology Core (HIC), and Patient-derived xenografts (PDXs) were obtained from Fox Chase Cancer Center (FCCC). These samples were from different unidentified and healthy donors with written, informed consent. All the procedures were approved by the Institutional Review Board (IRB) and conducted according to the declarations of Helsinki protocols.
(§2) 5000 cells as indicated were cultured in 96-well plate with 100 μl of media. On the next day, Brusatol or associated analogs were added once to the cells without media change. After treatment, the cells were incubated with 100 μl buffer for 10 min at room temperature following the instructions of CellTiter-Glo kit (Promega, Madison, WI). Luminescence was detected using a multi-mode reader Cytation 5 (BioTek, Winooski, VT). Brusatol or its analogs are dissolved in 100% ethanol and diluted in 1 × PBS for treatment. Two independent experiments done in duplicates were performed.

For a further data set, the system named is normal T-cells. Kind of data set: Cytotoxicity, cell viability assay in normal cells. It counts as cell-based, human. Conditions: fraction of 0 μM control.
Excerpt: as §1, §2

In a further data set the test system is Raji cells. Briefly: Cell viability assay (CellTiter-Glo luminescence). It counts as cell-based. The note with it: human. On the procedure: as §2
Another data set relates to MOLM14 cells. Kind of data set: Cell viability assay (CellTiter-Glo luminescence). It counts as cell-based. Conditions: human. The procedure: as §2
A further data set has as its system SU-DHL-4 cells. Briefly: Cell viability assay (CellTiter-Glo luminescence). The format is cell-based. The note with it: human. On the procedure:
as §2
(In general: Cellular ATP, detected with luciferase, serves as a proxy for viable cell number.)

Each structure is given as a SMILES string.

For the molecule `C[C@H](NC(=O)c1c(N)nn2cccnc12)c1cc2cccc(C#Cc3cnn(C)c3)c2c(=O)n1-c1ccccc1` [IPI-549], the “relative cell viability (Fig 6a), replicates” value in the data set on PBMC was determined as 1.089. The “relative cell viability (Fig 6b), replicates” value with normal T-cells (Con. 0.000244141 μM) came to 0.9355; with normal T-cells (Con. 0.25 μM), 1.195. The “relative cell viability (Fig 6f), replicates” value turned out to be 1.1894 in the data set with Raji cells (0.0390625 μM) and 1.19 in the data set with Raji cells (0.625 μM). For the same molecule, the entries for the “relative cell viability (Fig 6e), replicates” value in the data set on MOLM14 cells (0.00244141 μM), in the data set on MOLM14 cells (0.0390625 μM) and with MOLM14 cells (2.5 μM) were 1.208, 1.211 and 1.11, respectively. Moreover, the “relative cell viability (Fig 6d), replicates” value in the data set with SU-DHL-4 cells (0.00244141 μM) turned out to be 1.1404; in the data set with SU-DHL-4 cells (0.00976562 μM), 1.083; with SU-DHL-4 cells (0.15625 μM), 1.172; in the data set with SU-DHL-4 cells (0.625 μM), 0.9953; in the data set on SU-DHL-4 cells (2.5 μM), 0.8211.
As for `CC[C@H](Nc1ncnc2[nH]cnc12)c1nc2cccc(F)c2c(=O)n1-c1ccccc1` [Idelalisib], the “relative cell viability (Fig 6b), replicates” value with normal T-cells (Con. 0.015625 μM) is 1.009; in the data set with normal T-cells (Con. 0.0625 μM), 1.048. The “relative cell viability (Fig 6f), replicates” value in the data set with Raji cells (0.00244141 μM) is reported as 1.153; in the data set on Raji cells (0.00976562 μM), 1.359; in the data set on Raji cells (0.15625 μM) it was 1.194; in the data set with Raji cells (2.5 μM), 1.018; in the data set on Raji cells (10 μM) it was 0.8548. For the same molecule, in the data set on MOLM14 cells (0.00976562 μM), the “relative cell viability (Fig 6e), replicates” value was determined as 1.185. Further, the “relative cell viability (Fig 6d), replicates” value with SU-DHL-4 cells (0.00976562 μM) is listed as 1.214; in the data set on SU-DHL-4 cells (0.0390625 μM) it was 1.044; with SU-DHL-4 cells (0.15625 μM), 1.012; in the data set with SU-DHL-4 cells (0.625 μM) it was 1.012.

Values taken from paper PMC7253423, “Quassinoid analogs with enhanced efficacy for treatment of hematologic malignancies target the PI3Kγ isoform” (Communications Biology, 2020).
